The text below walks through data of PMC11840771 (ACS Omega, 2025).

The assay addresses HER2-TK (Homo sapiens, UniProt P04626). The assay is described as follows: SPR kinetic analysis of binding to immobilized HER2-TK. For orientation: SPR reads the build-up and loss of mass on a sensor chip optically.

SMILES strings stand for the structures.

`C=C(C)[C@@H]1CCC(C)=C[C@H]1c1c(O)cc(CCCCC)cc1O` [CBD, cannabidiol]: the ka (SPR, PBS pH 7.4 with 5% DMSO, mean ± SD) is reported as 10.27 ± 0.38 10^2/(M·s). Where the note is “read-out: association rate constant (ka)”, the kon was 1030 M⁻¹ s⁻¹.
